Chains of the proteins cited; added tags and fusions are not shown. Residues count along the entry.
UniProt P08581, 974-1390 limits assumed: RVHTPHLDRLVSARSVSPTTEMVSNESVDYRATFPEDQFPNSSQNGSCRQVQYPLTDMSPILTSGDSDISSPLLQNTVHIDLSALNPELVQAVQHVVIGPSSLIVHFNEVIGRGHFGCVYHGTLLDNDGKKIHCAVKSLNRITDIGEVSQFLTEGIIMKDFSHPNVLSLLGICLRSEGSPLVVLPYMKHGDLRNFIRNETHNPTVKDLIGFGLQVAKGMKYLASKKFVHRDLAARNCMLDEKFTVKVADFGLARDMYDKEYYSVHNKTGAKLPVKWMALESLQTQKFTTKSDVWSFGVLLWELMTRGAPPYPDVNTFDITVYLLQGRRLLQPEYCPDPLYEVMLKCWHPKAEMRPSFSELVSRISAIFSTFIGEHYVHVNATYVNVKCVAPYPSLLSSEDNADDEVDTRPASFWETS

In patent US8435981B2, “2-(heterocyclylbenzyl)pyridazinone derivatives” (Merck Patent Gesellschaft mit Beschränkter Haftung, priority 2006, dated 2013):

Biological target: Met kinase (Homo sapiens, UniProt P08581)
Test: Met kinase inhibition, enzyme assay (flashplate method)
Format: biochemical
Parameters: 6His (N); purchased Upstate 14-526; host or cells: Sf21 insect cells (S. frugiperda), baculovirus
Description: Flashplate Method (Met Kinase)
The test plates used are 96-well Flashplate® microtitre plates from Perkin Elmer (Cat. No. SMP200). The components of the kinase reaction described below are pipetted into the assay plate. The Met kinase and the substrate poly Ala-Glu-Lys-Tyr, (pAGLT, 6:2:5:1), are incubated for 3 hrs at room temperature with radioactively labelled ^33P-ATP in the presence and absence of test substances in a total volume of 100 μl. The reaction is terminated using 150 μl of a 60 mM EDTA solution. After incubation for a further 30 min at room temperature, the supernatants are filtered off with suction, and the wells are washed three times with 200 μl of 0.9% NaCl solution each time. The measurement of the bound radioactivity is carried out by means of a scintillation measuring instrument (Topcount NXT, Perkin-Elmer).
The full value used is the inhibitor-free kinase reaction. This should be approximately in the range 6000-9000 cpm. The pharmacological zero value used is staurosporin in a final concentration of 0.1 mM. The inhibitory values (IC50) are determined using the RS1_MTS program.
Kinase reaction conditions per well:
10 μl of substance to be tested in assay buffer with 10% of DMSO
10 μl of ATP (final concentration 1 μM cold, 0.35 μCi of ^33P-ATP)
50 μl of Met kinase/substrate mixture in assay buffer;

Compound: Cc1cnc(-c2cccc(Cn3nc(-c4cc(F)cc(F)c4)ccc3=O)c2)o1 [Compound A13, 6-(3,5-difluorophenyl)-2-[3-(5-methyloxazol-2-yl)benzyl]-2H-pyridazin-3-one]
- IC50: 10 to 1000 nM
